# This is a selection: effects in other tests are not listed, and their absence says nothing.
# Test: Solubility of fentanyl in softening agents
# Details: liquid paraffin versus polybutene
smiles,measurement,value
CCC(=O)N(c1ccccc1)C1CCN(CCc2ccccc2)CC1,solubility of fentanyl in liquid paraffin and polybutene,higher in polybutene
